Test results reported in ChEMBL document CHEMBL4043066, “Drug Discovery Targeting Bromodomain-Containing Protein 4” (J Med Chem, 2017).

Assays:
[1] = target: T1, Bromodomain-containing protein 4 (Homo sapiens, UniProt O60885); experiment: Inhibition of recombinant His-tagged BRD4 bromodomain 1 (K57 to E168 residues) (unknown origin) after 1 hr by TR-FRET assay
[2] = target: T1, Bromodomain-containing protein 4; experiment: Inhibition of recombinant His-tagged BRD4 bromodomain 2 (E352 to E168 residues) (unknown origin) after 1 hr by TR-FRET assay
MX1 = experiment: Antiproliferative activity against human MX1 cells incubated for >= 72 hrs by CellTiter-Glo assay; type: functional, cell-based; settings: MX1, 72 h

Row | SMILES | IC50 [1] [nM] | IC50 [2] [nM] | EC50 (MX1) [nM]
1 | CCOc1cc(=O)n(C)cc1-c1cc(N(CC2CC2)S(=O)(=O)CC)ccc1Oc1ccc(F)cc1F | 61 | 2.3 | 
2 | CC(=O)Nc1ccc(CNc2cccc(Oc3ccc(S(C)(=O)=O)cc3-c3cn(C)c(=O)c4[nH]ccc34)c2)cc1 |  |  | 14
3 | CCS(=O)(=O)c1ccc(OCC2CC2(F)F)c(-c2cn(C)c(=O)c3[nH]c(C#CCN(C)C)cc23)c1 (centres undefined) |  |  | 9.4
